Source: paper PMC6321168, “Comparative Study on Excretive Characterization of Main Components in Herb Pair Notoginseng-Safflower and Single Herbs by LC–MS/MS” (Pharmaceutics, 2018)

Experiments:
[1] = Urinary excretion study in rats after oral NS, SF or CNS (LC–MS/MS); format: in vivo; settings: for Accumulative excretion amount / Accumulative excretion percentage / Concentration / Excretion amount: rat urine
Experimental: The animal room was set at constant temperature of 20 ± 2 °C with humidity of 50 ± 20% and 12/12 h light/dark cycle.
(§1) Eighteen male rats were fasted for 12 h before starting the experiment. The rats were divided into three groups at random (n = 6) and received NS (60 mg/kg), SF (50 mg/kg), and NS (60 mg/kg) + SF (50 mg/kg), respectively, by oral gavage. The rats were placed in separate metabolic cages. The urine samples were collected at 0–2, 2–4, 4–6, 6–8, 8–12, 12–24, 24–36, 36–48, 48–72, 72–96, and 96–120 h. The feces samples were collected at 0–4, 4–8, 8–12, 12–24, 24–36, 36–48, 48–72, 72–96, and 96–120 h. The urine volume was recorded and the dry feces were measured for each collection period. Samples were stored at −80 °C until analysis.
An aliquot of 200 μL urine sample was mixed with 10 μL of IS and evaporated to dryness with a ZLS-2 vacuum centrifugal concentrator (Herexi Co., Ltd., Changsha, Hunan, China). The residue was reconstituted in 100 μL of 50% methanol vortexed for 2 min and centrifuged at 12,000 rpm for 15 min. Finally, a 1 μL aliquot was injected for LC–MS analysis.
Ultra fast liquid chromatography (UFLC) analysis was performed using a Shimadzu UFLC system (DGU-20A3R Degasser; LC-20AD pump; SIL-20AXR Autosampler; CTO-20AC Column Oven) (Nakagyo-Ku, Koyoto, Japan). […] Because of the different endogenous substances in the urine and feces samples, different elution gradients were used to alleviate the matrix effects for the analytes.
The mass spectrometric detection was performed on an ABSciex 4500 Qtrap mass spectrometer (ABSciex, Foster City, CA, USA) equipped with a negative electrospray ionization (ESI) interface using multiple reaction monitoring (MRM). The MS parameters were optimized under the selected ion monitoring conditions as follows: curtain gas, 35 psi; ionspray voltage, 4500 V; turbo gas temperature, 450 °C; GS1, 45 psi; GS2, 45 psi. All data were acquired and analyzed by Analyst software (Versions 1.6.2) from ABSciex.
(§2) The accumulative excretion percentage was calculated for each analyte as follows. Excretion at time (t) = [concentration of the analyte (ng/mL) at t] × total urine (or feces) volume (mL) at t. The cumulative excretion up to time t (mg) was expressed as a percent (%) cumulative excretion by dividing by the total amount of the analyte ingested (mg): % Cumulative Excretion = 100 × (Σt excretiont) total ingested.

CYP1A2 = settings: in rats; cited from earlier work
[2] = Total excretion in urine and feces of rats; format: in vivo; settings: each group (NS, SF, CNS)
Experimental: as §1, §2

hydroxysafflor yellow A [HSYA]
Accumulative excretion amount ([1]; oral CNS 110 mg/kg, 2 h): 4.713 ± 3.816 µg
Accumulative excretion percentage ([1]; oral CNS 110 mg/kg, 2 h): 0.473±0.387%
Concentration ([1]; oral CNS 110 mg/kg, 2 h): 3367 ± 3471 ng/mL
Excretion amount ([1]; oral CNS 110 mg/kg, 2 h): 4.713 ± 3.816 µg
Accumulative excretion amount ([1]; oral CNS 110 mg/kg, 4 h): 9.054 ± 2.878 µg
Accumulative excretion percentage ([1]; oral CNS 110 mg/kg, 4 h): 0.902±0.288%
Concentration ([1]; oral CNS 110 mg/kg, 4 h): 4299 ± 4350 ng/mL
Excretion amount ([1]; oral CNS 110 mg/kg, 4 h): 5.787 ± 2.672 µg
Accumulative excretion amount ([1]; oral CNS 110 mg/kg, 6 h): 11.240 ± 2.799 µg
Accumulative excretion percentage ([1]; oral CNS 110 mg/kg, 6 h): 1.111±0.284%
Concentration ([1]; oral CNS 110 mg/kg, 6 h): 1851 ± 1081 ng/mL
Excretion amount ([1]; oral CNS 110 mg/kg, 6 h): 2.915 ± 1.407 µg
Accumulative excretion amount ([1]; oral CNS 110 mg/kg, 8 h): 13.469 ± 5.034 µg
Accumulative excretion percentage ([1]; oral CNS 110 mg/kg, 8 h): 1.332±0.503%
Concentration ([1]; oral CNS 110 mg/kg, 8 h): 2374 ± 2051 ng/mL
Excretion amount ([1]; oral CNS 110 mg/kg, 8 h): 3.567 ± 3.630 µg
Accumulative excretion amount ([1]; oral CNS 110 mg/kg, 12 h): 16.481 ± 6.950 µg
Accumulative excretion percentage ([1]; oral CNS 110 mg/kg, 12 h): 1.634±0.696%
Concentration ([1]; oral CNS 110 mg/kg, 12 h): 4148 ± 6221 ng/mL
Excretion amount ([1]; oral CNS 110 mg/kg, 12 h): 3.442 ± 2.613 µg
Accumulative excretion amount ([1]; oral CNS 110 mg/kg, 24 h): 18.044 ± 7.031 µg
Accumulative excretion percentage ([1]; oral CNS 110 mg/kg, 24 h): 1.783±0.701%
Concentration ([1]; oral CNS 110 mg/kg, 24 h): 453 ± 548 ng/mL
Excretion amount ([1]; oral CNS 110 mg/kg, 24 h): 1.562 ± 1.307 µg
Accumulative excretion amount ([1]; oral CNS 110 mg/kg, 36 h): 18.373 ± 7.165 µg
Accumulative excretion percentage ([1]; oral CNS 110 mg/kg, 36 h): 1.821±0.715%
Concentration ([1]; oral CNS 110 mg/kg, 36 h): 198 ± 296 ng/mL
Excretion amount ([1]; oral CNS 110 mg/kg, 36 h): 0.340 ± 0.319 µg
Accumulative excretion amount ([1]; oral CNS 110 mg/kg, 48 h): 18.568 ± 7.270 µg
Accumulative excretion percentage ([1]; oral CNS 110 mg/kg, 48 h): 1.841±0.726%
Concentration ([1]; oral CNS 110 mg/kg, 48 h): 39 ± 42 ng/mL
Excretion amount ([1]; oral CNS 110 mg/kg, 48 h): 0.195 ± 0.178 µg
Accumulative excretion amount ([1]; oral CNS 110 mg/kg, 72 h): 18.701 ± 7.480 µg
Accumulative excretion percentage ([1]; oral CNS 110 mg/kg, 72 h): 1.857±0.748%
Concentration ([1]; oral CNS 110 mg/kg, 72 h): 66 ± 139 ng/mL
Excretion amount ([1]; oral CNS 110 mg/kg, 72 h): 0.133 ± 0.278 µg
Accumulative excretion amount ([1]; oral CNS 110 mg/kg, 96 h): 18.763 ± 7.536 µg
Accumulative excretion percentage ([1]; oral CNS 110 mg/kg, 96 h): 1.864±0.759%
Concentration ([1]; oral CNS 110 mg/kg, 96 h): 31 ± 45 ng/mL
Excretion amount ([1]; oral CNS 110 mg/kg, 96 h): 0.062 ± 0.089 µg
Accumulative excretion amount ([1]; oral CNS 110 mg/kg, 120 h): 18.804 ± 7.544 µg
Accumulative excretion percentage ([1]; oral CNS 110 mg/kg, 120 h): 1.864±0.756%
Concentration ([1]; oral CNS 110 mg/kg, 120 h): 57 ± 114 ng/mL
Excretion amount ([1]; oral CNS 110 mg/kg, 120 h): 0.041 ± 0.052 µg
Accumulative excretion amount ([1]; oral SF 50 mg/kg, 2 h): 6.268 ± 3.141 µg
Accumulative excretion percentage ([1]; oral SF 50 mg/kg, 2 h): 0.623±0.317%
Concentration ([1]; oral SF 50 mg/kg, 2 h): 1803 ± 870 ng/mL
Excretion amount ([1]; oral SF 50 mg/kg, 2 h): 6.268 ± 3.141 µg
Accumulative excretion amount ([1]; oral SF 50 mg/kg, 4 h): 13.148 ± 6.505 µg
Accumulative excretion percentage ([1]; oral SF 50 mg/kg, 4 h): 1.305±0.647%
Concentration ([1]; oral SF 50 mg/kg, 4 h): 4325 ± 2706 ng/mL
Excretion amount ([1]; oral SF 50 mg/kg, 4 h): 6.880 ± 4.592 µg
Accumulative excretion amount ([1]; oral SF 50 mg/kg, 6 h): 14.717 ± 5.303 µg
Accumulative excretion percentage ([1]; oral SF 50 mg/kg, 6 h): 1.465±0.527%
Concentration ([1]; oral SF 50 mg/kg, 6 h): 3381 ± 2681 ng/mL
Excretion amount ([1]; oral SF 50 mg/kg, 6 h): 5.139 ± 5.476 µg
Accumulative excretion amount ([1]; oral SF 50 mg/kg, 8 h): 15.809 ± 5.807 µg
Accumulative excretion percentage ([1]; oral SF 50 mg/kg, 8 h): 1.564± 0.573%
Concentration ([1]; oral SF 50 mg/kg, 8 h): 1310 ± 782 ng/mL
Excretion amount ([1]; oral SF 50 mg/kg, 8 h): 2.185 ± 1.420 µg
Accumulative excretion amount ([1]; oral SF 50 mg/kg, 12 h): 18.769 ± 6.103 µg
Accumulative excretion percentage ([1]; oral SF 50 mg/kg, 12 h): 1.861± 0.608%
Concentration ([1]; oral SF 50 mg/kg, 12 h): 864 ± 46 ng/mL
Excretion amount ([1]; oral SF 50 mg/kg, 12 h): 2.960 ± 2.5891 µg
Accumulative excretion amount ([1]; oral SF 50 mg/kg, 24 h): 27.211 ± 12.281 µg
Accumulative excretion percentage ([1]; oral SF 50 mg/kg, 24 h): 2.691±1.210%
Concentration ([1]; oral SF 50 mg/kg, 24 h): 825 ± 828 ng/mL
Excretion amount ([1]; oral SF 50 mg/kg, 24 h): 8.442 ± 8.803 µg
Accumulative excretion amount ([1]; oral SF 50 mg/kg, 36 h): 28.075 ± 12.431 µg
Accumulative excretion percentage ([1]; oral SF 50 mg/kg, 36 h): 2.782± 1.235%
Concentration ([1]; oral SF 50 mg/kg, 36 h): 201 ± 136 ng/mL
Excretion amount ([1]; oral SF 50 mg/kg, 36 h): 0.864 ± 0.722 µg
Accumulative excretion amount ([1]; oral SF 50 mg/kg, 48 h): 28.344 ± 12.378 µg
Accumulative excretion percentage ([1]; oral SF 50 mg/kg, 48 h): 2.809±1.228%
Concentration ([1]; oral SF 50 mg/kg, 48 h): 50 ± 46 ng/mL
Excretion amount ([1]; oral SF 50 mg/kg, 48 h): 0.269 ± 0.285 µg
Accumulative excretion amount ([1]; oral SF 50 mg/kg, 72 h): 28.470 ± 12.357 µg
Accumulative excretion percentage ([1]; oral SF 50 mg/kg, 72 h): 2.822±1.220%
Concentration ([1]; oral SF 50 mg/kg, 72 h): 22 ± 14 ng/mL
Excretion amount ([1]; oral SF 50 mg/kg, 72 h): 0.126 ± 0.043 µg
Accumulative excretion amount ([1]; oral SF 50 mg/kg, 96 h): 28.501 ± 12.334 µg
Accumulative excretion percentage ([1]; oral SF 50 mg/kg, 96 h): 2.822±1.225%
Concentration ([1]; oral SF 50 mg/kg, 96 h): 18 ± 19 ng/mL
Excretion amount ([1]; oral SF 50 mg/kg, 96 h): 0.031 ± 0.038 µg
Accumulative excretion amount ([1]; oral SF 50 mg/kg, 120 h): 28.562 ± 12.270 µg
Accumulative excretion percentage ([1]; oral SF 50 mg/kg, 120 h): 2.837±1.216%
Concentration ([1]; oral SF 50 mg/kg, 120 h): 35 ± 45 ng/mL
Excretion amount ([1]; oral SF 50 mg/kg, 120 h): 0.070 ± 0.091 µg
cumulative excretion ratio in urine ([1]; rats, oral CNS 110 mg/kg, within 120 h): 1.86%
cumulative excretion ratio in urine ([1]; rats, oral SF 50 mg/kg, within 120 h): 2.83%
cumulative urinary excretion ratio in the CNS group comparing with the SF group ([1]; rats, within 120 h): 0.66 times
inhibitory effect on CYP1A2 (CYP1A2): significant inhibitory effects
total excretion ratios in the urine and feces [2]: less than 18%
